## Measured affinities in a library of Ab-14 heavy chain variants

Source: Engelhart et al. 2022 (doi:10.1038/s41597-022-01779-4), MIT Lincoln Laboratory and A-Alpha Bio; data file from the FLAb repository.

The target is the same throughout: PDVDLGDISGINAS, from the HR2 region of SARS-CoV-2 spike.

Parent: Ab-14, a human scFv built as VH, the linker GGGGSGGGGSGGGGS, VL. Only the CDRs of the heavy chain vary.
VH: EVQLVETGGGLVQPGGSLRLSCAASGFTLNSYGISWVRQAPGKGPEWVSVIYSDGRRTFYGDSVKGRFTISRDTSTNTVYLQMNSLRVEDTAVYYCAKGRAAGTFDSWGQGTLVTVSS
VL: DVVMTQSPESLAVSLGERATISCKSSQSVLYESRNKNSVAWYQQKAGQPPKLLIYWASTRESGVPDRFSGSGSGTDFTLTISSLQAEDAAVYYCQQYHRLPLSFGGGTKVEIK

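The parent was found by panning a naive human phage display library on the peptide. The library (AAYL49) carries one to three amino acid substitutions per variant, with no insertions or deletions. The assay is AlphaSeq: two haploid yeast populations carry antibody and antigen on their surface. After mating in shaken culture at 30 °C for 16 h, diploids were selected and their barcode pairs sequenced. Scores were corrected for input abundance and mapped to Kd with protein pairs of known affinity run in the same pool. There are three technical replicates.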

Substitutions are numbered in sequence along the VH above, starting at 1 (not Kabat). Every variant below is changed at K65 of the VH (sequential numbering). Affinities are written as log10 Kd with Kd in nM; a lower number is a better binder. The mean shown is taken over the replicates in which the pair was detected. Where no diploid with the target was found in any replicate, the entry reads "nd": below detection, most likely a poor binder, though not proof of it. Background: pairings of library AAYL49 with three empty control strains gave a value in 15% of cases (median 4.06, 5th percentile 2.83). Values in that range, when seen in few replicates, are hard to tell from nonspecific mating. In this assay the parent's reference entry averaged 0.65; its copy inside this library read 4.11 (one replicate of three).

Variant D54I/R57T/K65D showed 4.60 (1 of 3 replicates). With T28L/I34H/K65A the result was 6.17 (1 of 3 replicates). With N30I/I34K/K65C the result was nd (0 of 3 replicates). For T28W/K65Q/G99E, the assay gave 4.82 (2 of 3 replicates). With I34W/S63D/K65A the result was nd (0 of 3 replicates).

Variant R56A/K65W/A102G gave nd (0 of 3 replicates). Variant S53N/D54Y/K65I showed nd (0 of 3 replicates). For G26E/Y32D/K65A, the assay gave nd (0 of 3 replicates). Variant I51K/F59Q/K65L showed 4.62 (1 of 3 replicates). With G61P/K65G/A102Y the result was nd (0 of 3 replicates).

Variant Y60W/K65H/A102I showed nd (0 of 3 replicates). Variant Y52W/S63V/K65W showed nd (0 of 3 replicates). With F59I/V64L/K65T the result was nd (0 of 3 replicates). Variant Y52P/D54V/K65D gave nd (0 of 3 replicates). For G33H/K65T/T104D, the assay gave 5.49 (2 of 3 replicates).

Variant G55N/K65H/D106L showed 5.18 (3 of 3 replicates). Variant D54A/K65I/F105M gave nd (0 of 3 replicates). Variant R57F/D62M/K65S showed 3.36 (1 of 3 replicates). With G61L/K65R/T104H the result was 0.61 (3 of 3 replicates). Variant T28C/K65N/S107V showed 1.64 (3 of 3 replicates).

Variant D54Q/K65R/T104D gave nd (0 of 3 replicates). With K65L/R100T/G103W the result was 2.11 (3 of 3 replicates). Variant V50A/K65F/G103K showed 3.88 (3 of 3 replicates). Variant Y52L/K65T/R100V gave nd (0 of 3 replicates). Variant V50P/K65D/D106C gave nd (0 of 3 replicates).

For F59T/D62L/K65L, the assay gave 4.76 (1 of 3 replicates). For N30T/K65R/A102S, the assay gave 2.85 (3 of 3 replicates). Variant R56G/F59I/K65G showed nd (0 of 3 replicates). Variant Y52N/G61K/K65S gave 5.22 (1 of 3 replicates). For K65W/G103I/T104R, the assay gave nd (0 of 3 replicates).

Variant G55A/K65A/A102K gave nd (0 of 3 replicates). For D54G/T58F/K65T, the assay gave nd (0 of 3 replicates). Variant G55H/S63W/K65V showed nd (0 of 3 replicates). For F27H/L29F/K65V, the assay gave 3.71 (1 of 3 replicates). Variant D54S/K65W/G103S gave 2.92 (1 of 3 replicates).

Variant K65W/T104C/F105C showed 2.48 (3 of 3 replicates). Variant S53K/K65G/F105I gave nd (0 of 3 replicates). For G55K/R56F/K65E, the assay gave 4.68 (2 of 3 replicates). Variant D54V/T58S/K65V showed nd (0 of 3 replicates). Variant Y60E/K65N/F105G gave nd (0 of 3 replicates).

For D62E/K65L/G103K, the assay gave nd (0 of 3 replicates).

The 6 strongest on average among those seen in every replicate, once more:

changes,"mean, log10 nM",detected
G61L/K65R/T104H,0.61,3/3
T28C/K65N/S107V,1.64,3/3
K65L/R100T/G103W,2.11,3/3
K65W/T104C/F105C,2.48,3/3
N30T/K65R/A102S,2.85,3/3
V50A/K65F/G103K,3.88,3/3